{"source": "paper PMC11236204", "about": "(PLOS Pathogens, 2024)", "key": {"[1]": {"system": "Ifit2, Cxcl10, Tnfa, Cxcl1 RNA", "experiment": "ISG and inflammatory gene expression by qPCR, rat cortical neurons", "type": "cell-based", "settings": "for Rel. Fold change Tnfa RNA: Fig 4G; for Rel. Fold change Tnfa RNA / Rel. Fold change Cxcl1 RNA / Rel. Fold change Cxcl10 RNA: vehicle = 1; for Rel. Fold change Cxcl1 RNA: Fig 4H; for Rel. Fold change Cxcl10 RNA: Fig 4I"}, "[2]": {"system": "IFIT1, CXCL10, TNFα RNA", "settings": "U2OS; 10 μg/mL; 4h or 24h"}, "[3]": {"system": "Cxcl1, Ccl2 RNA", "settings": "four hour stimulation"}, "[4]": {"system": "rat cortical neurons", "settings": "Fig 4A-B"}, "[5]": {"system": "mouse cortical neurons", "experiment": "Relative survival of mouse cortical neurons"}}, "note": "Read-outs that look alike come from different tables or passages of the source."}
{"smiles": "CCCCCCCCCCCCCCCC(=O)N[C@@H](CSCC(COC(=O)CCCCCCCCCCCCCCC)OC(=O)CCCCCCCCCCCCCCC)C(=O)N[C@@H](CO)C(=O)N[C@@H](CCCCN)C(=O)N[C@@H](CCCCN)C(=O)N[C@@H](CCCCN)C(=O)N[C@@H](CCCCN)C(=O)O", "note": "(stereo partly drawn) [Pam3CSK4]", "values": [{"measurement": "Rel. Fold change Tnfa RNA", "setting": "[1]; replicate 1", "value": 220.074}, {"measurement": "Rel. Fold change Tnfa RNA", "setting": "[1]; replicate 2", "value": 94.1012}, {"measurement": "Rel. Fold change Tnfa RNA", "setting": "[1]; replicate 3", "value": 395.841}, {"measurement": "Rel. Fold change Cxcl1 RNA", "setting": "[1]; replicate 1", "value": 688.291}, {"measurement": "Rel. Fold change Cxcl1 RNA", "setting": "[1]; replicate 2", "value": 977.752}, {"measurement": "Rel. Fold change Cxcl1 RNA", "setting": "[1]; replicate 3", "value": 842.13}, {"measurement": "Rel. Fold change Cxcl1 RNA", "setting": "[1]; replicate 4", "value": 514.847}, {"measurement": "Rel. Fold change Cxcl10 RNA", "setting": "[1]; replicate 1", "value": 1255.71}, {"measurement": "Rel. Fold change Cxcl10 RNA", "setting": "[1]; replicate 2", "value": 913.999}, {"measurement": "Rel. Fold change Cxcl10 RNA", "setting": "[1]; replicate 3", "value": 1326.05}, {"measurement": "Rel. Fold change Cxcl10 RNA", "setting": "[1]; replicate 4", "value": 1156.06}, {"measurement": "inflammatory gene transcription (Tnfa, Cxcl1, Cxcl10)", "setting": "[1]; rat neurons, 10μg/mL for 4h", "value": "induced inflammatory gene transcription"}, {"measurement": "induction of Ifit2", "setting": "[1]; rat neurons, 10μg/mL, 4h or 24h", "value": "no induction"}, {"measurement": "induction of IFIT1", "setting": "[2]", "value": "no induction"}, {"measurement": "Cxcl1 and Ccl2 expression", "setting": "[3]; TLR2 KO mouse neurons", "value": "ablated"}, {"measurement": "Cxcl1 and Ccl2 expression", "setting": "[3]; wild type mouse neurons", "value": "induced expression"}, {"measurement": "Avg. Log2 Fold change / vehicle", "setting": "[4]; gene Abcb1b", "value": 2.88}, {"measurement": "Avg. Log2 Fold change / vehicle", "setting": "[4]; gene Angptl4", "value": 2.14}, {"measurement": "Avg. Log2 Fold change / vehicle", "setting": "[4]; gene C1s", "value": 0.86}, {"measurement": "Avg. Log2 Fold change / vehicle", "setting": "[4]; gene C3", "value": 2.64}, {"measurement": "Avg. Log2 Fold change / vehicle", "setting": "[4]; gene Ccl2", "value": 6.45}, {"measurement": "Avg. Log2 Fold change / vehicle", "setting": "[4]; gene Ccl7", "value": 4.1}, {"measurement": "Avg. Log2 Fold change / vehicle", "setting": "[4]; gene Ccl20", "value": 3.54}, {"measurement": "Avg. Log2 Fold change / vehicle", "setting": "[4]; gene Cd44", "value": 2.32}, {"measurement": "Avg. Log2 Fold change / vehicle", "setting": "[4]; gene Cd83", "value": 2.1}, {"measurement": "Avg. Log2 Fold change / vehicle", "setting": "[4]; gene Cdkn2b", "value": 1.64}, {"measurement": "Avg. Log2 Fold change / vehicle", "setting": "[4]; gene Cebpd", "value": 3.31}, {"measurement": "Avg. Log2 Fold change / vehicle", "setting": "[4]; gene Csf1", "value": 2.93}, {"measurement": "Avg. Log2 Fold change / vehicle", "setting": "[4]; gene Cxcl1", "value": 6.42}, {"measurement": "Avg. Log2 Fold change / vehicle", "setting": "[4]; gene Cxcl9", "value": 0.78}, {"measurement": "Avg. Log2 Fold change / vehicle", "setting": "[4]; gene Cxcl10", "value": 5.14}, {"measurement": "Avg. Log2 Fold change / vehicle", "setting": "[4]; gene Fam129a", "value": 3.12}, {"measurement": "Avg. Log2 Fold change / vehicle", "setting": "[4]; gene Gadd45b", "value": 1.39}, {"measurement": "Avg. Log2 Fold change / vehicle", "setting": "[4]; gene Gbp2", "value": 3.21}, {"measurement": "Avg. Log2 Fold change / vehicle", "setting": "[4]; gene Gbp5", "value": 3.92}, {"measurement": "Avg. Log2 Fold change / vehicle", "setting": "[4]; gene Has2", "value": 2.88}, {"measurement": "Avg. Log2 Fold change / vehicle", "setting": "[4]; gene Herc6", "value": 1.66}, {"measurement": "Avg. Log2 Fold change / vehicle", "setting": "[4]; gene Icam1", "value": 4.13}, {"measurement": "Avg. Log2 Fold change / vehicle", "setting": "[4]; gene Ifih1", "value": 1.51}, {"measurement": "Avg. Log2 Fold change / vehicle", "setting": "[4]; gene Irf1", "value": 1.24}, {"measurement": "Avg. Log2 Fold change / vehicle", "setting": "[4]; gene Irgm", "value": 1.31}, {"measurement": "Avg. Log2 Fold change / vehicle", "setting": "[4]; gene Lcn2", "value": 4.7}, {"measurement": "Avg. Log2 Fold change / vehicle", "setting": "[4]; gene Lrrc38", "value": 1.16}, {"measurement": "Avg. Log2 Fold change / vehicle", "setting": "[4]; gene Mpa2l", "value": 2.98}, {"measurement": "Avg. Log2 Fold change / vehicle", "setting": "[4]; gene Nfkb2", "value": 2.42}, {"measurement": "Avg. Log2 Fold change / vehicle", "setting": "[4]; gene Nfkbiz", "value": 2.34}, {"measurement": "Avg. Log2 Fold change / vehicle", "setting": "[4]; gene Parp9", "value": 0.99}, {"measurement": "Avg. Log2 Fold change / vehicle", "setting": "[4]; gene Parp14", "value": 1.07}, {"measurement": "Avg. Log2 Fold change / vehicle", "setting": "[4]; gene Ptrf", "value": 1.56}, {"measurement": "Avg. Log2 Fold change / vehicle", "setting": "[4]; gene RGD1309362", "value": 1.04}, {"measurement": "Avg. Log2 Fold change / vehicle", "setting": "[4]; gene RT1-CE7", "value": 1.17}, {"measurement": "Avg. Log2 Fold change / vehicle", "setting": "[4]; gene Rab32", "value": 1.86}, {"measurement": "Avg. Log2 Fold change / vehicle", "setting": "[4]; gene Rassf4", "value": 2.75}, {"measurement": "Avg. Log2 Fold change / vehicle", "setting": "[4]; gene Relb", "value": 1.71}, {"measurement": "Avg. Log2 Fold change / vehicle", "setting": "[4]; gene Rhbdl3", "value": 1.18}, {"measurement": "Avg. Log2 Fold change / vehicle", "setting": "[4]; gene Ripk2", "value": 2.03}, {"measurement": "Avg. Log2 Fold change / vehicle", "setting": "[4]; gene Rnf213", "value": 1.01}, {"measurement": "Avg. Log2 Fold change / vehicle", "setting": "[4]; gene Rsad2", "value": 2.71}, {"measurement": "Avg. Log2 Fold change / vehicle", "setting": "[4]; gene S1pr3", "value": 1.81}, {"measurement": "Avg. Log2 Fold change / vehicle", "setting": "[4]; gene Tnfaip2", "value": 3.01}, {"measurement": "Avg. Log2 Fold change / vehicle", "setting": "[4]; gene Zc3h12a", "value": 3.15}, {"measurement": "Avg. Log2 Fold change / vehicle", "setting": "[4]; gene Zc3hav1", "value": 1.17}, {"measurement": "cytotoxicity", "setting": "[5]", "value": "no cytotoxicity"}]}
